Laboratory results from ChEMBL document CHEMBL2216752, “Carnitine palmitoyltransferase (CPT) modulators: a medicinal chemistry perspective on 35 years of research” (J Med Chem, 2011).

What was measured:
[1] = target: T1, Carnitine O-palmitoyltransferase 2, mitochondrial (Homo sapiens, UniProt P23786); test: Inhibition of human CPT2
T1 sequence (P23786 whole entry): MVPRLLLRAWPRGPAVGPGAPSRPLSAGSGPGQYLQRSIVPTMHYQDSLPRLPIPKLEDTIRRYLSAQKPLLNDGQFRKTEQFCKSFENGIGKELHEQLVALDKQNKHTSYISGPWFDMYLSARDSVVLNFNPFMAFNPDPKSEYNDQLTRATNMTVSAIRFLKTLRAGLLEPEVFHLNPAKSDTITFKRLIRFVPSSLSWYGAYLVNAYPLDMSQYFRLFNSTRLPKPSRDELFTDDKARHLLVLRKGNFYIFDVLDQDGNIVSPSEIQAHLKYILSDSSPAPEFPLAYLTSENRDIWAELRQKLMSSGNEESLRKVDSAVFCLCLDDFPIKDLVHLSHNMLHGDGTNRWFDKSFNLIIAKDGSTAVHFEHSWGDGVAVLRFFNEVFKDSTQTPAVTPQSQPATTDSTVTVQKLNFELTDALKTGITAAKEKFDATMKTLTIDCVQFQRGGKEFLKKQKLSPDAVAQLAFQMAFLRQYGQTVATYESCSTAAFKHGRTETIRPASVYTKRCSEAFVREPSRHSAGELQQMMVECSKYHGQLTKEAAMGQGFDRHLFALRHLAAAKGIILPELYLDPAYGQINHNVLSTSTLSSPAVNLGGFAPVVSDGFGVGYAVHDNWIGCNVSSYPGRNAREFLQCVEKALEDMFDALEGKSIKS

[2] = target: T2, Carnitine O-palmitoyltransferase 1, liver isoform (Homo sapiens, UniProt P50416); test: Inhibition of human CPT1A
T2 sequence (P50416 whole entry): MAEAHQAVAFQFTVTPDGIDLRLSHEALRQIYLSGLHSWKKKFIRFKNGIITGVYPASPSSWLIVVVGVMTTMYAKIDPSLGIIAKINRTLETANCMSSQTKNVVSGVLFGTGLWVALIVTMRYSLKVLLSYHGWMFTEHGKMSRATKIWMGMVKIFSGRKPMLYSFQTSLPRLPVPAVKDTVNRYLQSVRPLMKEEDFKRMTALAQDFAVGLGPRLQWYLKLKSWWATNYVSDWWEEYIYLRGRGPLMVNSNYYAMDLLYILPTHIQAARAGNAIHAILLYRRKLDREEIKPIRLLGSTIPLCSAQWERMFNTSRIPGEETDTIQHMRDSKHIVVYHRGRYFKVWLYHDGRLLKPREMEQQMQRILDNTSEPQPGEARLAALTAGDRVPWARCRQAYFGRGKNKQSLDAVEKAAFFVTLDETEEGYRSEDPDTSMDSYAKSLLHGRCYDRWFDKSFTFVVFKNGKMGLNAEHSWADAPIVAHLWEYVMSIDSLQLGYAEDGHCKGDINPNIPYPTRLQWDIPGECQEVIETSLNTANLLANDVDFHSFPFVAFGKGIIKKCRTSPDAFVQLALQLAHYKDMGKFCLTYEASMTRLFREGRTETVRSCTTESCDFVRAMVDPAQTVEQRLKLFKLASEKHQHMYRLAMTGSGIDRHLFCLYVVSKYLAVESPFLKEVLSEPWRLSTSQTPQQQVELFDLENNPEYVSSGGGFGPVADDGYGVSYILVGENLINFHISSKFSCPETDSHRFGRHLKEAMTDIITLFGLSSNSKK

CCCCc1oc2ccccc2c1C(=O)c1cc(I)c(OCCN(CC)CC)c(I)c1 [AMIODARONE]
IC50 [1]: > 100 µM
IC50 [2]: 140 µM
